# Cyclic peptide permeability, from CycPeptMPDB

Data: CycPeptMPDB; original report Kelly et al. 2021, doi:10.1021/jacs.0c06115.

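The data file gives no further conditions (lipid, pH, time, direction or concentration), and values from different papers need not be comparable. The list need not hold all peptides of the study. Entries at the database's floor value (log10 P of -10) are not listed.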

PAMPA is the parallel artificial membrane permeability assay, which has no cells and reads passive diffusion.
Values are log10 P with P in cm/s, so -5 is more permeable than -7.

| compound | PAMPA (log10 cm/s) |
|---|---|
| CC(=O)N1CCC[C@H]1C(=O)N[C@@H]1C(=O)N(C)[C@H](CC(C)C)C(=O)N(C)[C@@H](CC(C)C)C(=O)N(C)[C@@H](CC(C)C)C(=O)N(C)[C@H](CC(C)C)C(=O)N[C@@H](C)C(=O)N[C@@H](CC(C)C)C(=O)N2CCC[C@@H]2C(=O)O[C@@H]1C | -5.80 |
| CC(=O)N1CCC[C@H]1C(=O)N(C)[C@H](CC(C)C)C(=O)N[C@@H]1C(=O)N[C@H](Cc2ccc(F)c(F)c2)C(=O)N[C@@H](Cc2ccccc2)C(=O)N[C@H](Cc2cccc3ccccc23)C(=O)N(C)[C@H](C)C(=O)N[C@@H](CC(C)C)C(=O)N2CCC[C@H]2C(=O)O[C@@H]1C | -6.85 |
| CC(=O)N[C@@H]1C(=O)N2CCC[C@H]2C(=O)N(C)[C@H](CC(C)C)C(=O)N[C@H](CC(C)C)C(=O)N(C)[C@@H](CC(C)C)C(=O)N[C@H](CC(C)C)C(=O)N(C)[C@@H](C)C(=O)N[C@@H](CC(C)C)C(=O)N2CCC[C@@H]2C(=O)O[C@@H]1C | -5.93 |
| CCC[C@H]1NC(=O)[C@@H](NC(=O)[C@@H](CC(C)C)N(C)C(=O)[C@@H]2CCCN2C(C)=O)[C@@H](C)OC(=O)[C@@H]2CCCN2C(=O)[C@H](CC(C)C)NC(=O)[C@@H](C)N(C)C(=O)[C@@H](CC(C)C)NC(=O)[C@H](Cc2ccc(OC)cc2)NC1=O | -5.86 |
| CCC[C@H]1NC(=O)[C@@H](NC(=O)[C@@H](CC(C)C)N(C)C(=O)[C@@H]2CCCN2C(C)=O)[C@@H](C)OC(=O)[C@@H]2CCCN2C(=O)[C@H](CC(C)C)NC(=O)[C@@H](C)N(C)C(=O)[C@@H](CC2CCCCC2)NC(=O)[C@H](Cc2ccc(F)cc2)NC1=O | -6.03 |
| CC(=O)N[C@@H]1C(=O)N2CCC[C@H]2C(=O)N(C)[C@H](CC(C)C)C(=O)N[C@@H](CC(C)C)C(=O)N(C)[C@H](CC(C)C)C(=O)N[C@H](CC(C)C)C(=O)N(C)[C@@H](C)C(=O)N[C@@H](CC(C)C)C(=O)N2CCC[C@@H]2C(=O)O[C@@H]1C | -4.96 |
| CCC[C@H]1NC(=O)[C@@H](NC(=O)[C@@H](CC(C)C)N(C)C(=O)[C@@H]2CCCN2C(C)=O)[C@@H](C)OC(=O)[C@@H]2CCCN2C(=O)[C@H](CC(C)C)NC(=O)[C@@H](C)N(C)C(=O)[C@@H](CCC)NC(=O)[C@H](Cc2ccccc2)NC1=O | -5.71 |
| CC(=O)N1CCC[C@H]1C(=O)N(C)[C@H](CC(C)C)C(=O)N[C@@H]1C(=O)N[C@H](CC(C)C)C(=O)N[C@@H](CC(C)C)C(=O)N[C@H](CC2CCCCC2)C(=O)N(C)[C@H](C)C(=O)N[C@@H](CC(C)C)C(=O)N2CCC[C@H]2C(=O)O[C@@H]1C | -5.76 |
| CC(=O)N1CCC[C@H]1C(=O)N(C)[C@H](CC(C)C)C(=O)N[C@@H]1C(=O)N[C@H](Cc2ccccc2)C(=O)N[C@@H](Cc2ccccc2)C(=O)N[C@H](CC2CCCCC2)C(=O)N(C)[C@H](C)C(=O)N[C@@H](CC(C)C)C(=O)N2CCC[C@H]2C(=O)O[C@@H]1C | -5.37 |
| CC(=O)N1CCC[C@H]1C(=O)N[C@@H]1C(=O)N(C)[C@H](CC(C)C)C(=O)N(C)[C@@H](CC(C)C)C(=O)N[C@@H](CC(C)C)C(=O)N(C)[C@@H](CC(C)C)C(=O)N(C)[C@@H](C)C(=O)N[C@@H](CC(C)C)C(=O)N2CCC[C@@H]2C(=O)O[C@@H]1C | -5.40 |
| CC[C@@H]1NC(=O)[C@@H](CC2CCCCC2)NC(=O)[C@@H](NC(=O)[C@@H](CC(C)C)N(C)C(=O)[C@@H]2CCCN2C(C)=O)[C@@H](C)OC(=O)[C@@H]2CCCN2C(=O)[C@H](CC(C)C)NC(=O)[C@@H](C)N(C)C(=O)[C@@H](CC2CCCCC2)NC1=O | -6.01 |
| CC(=O)N1CCC[C@H]1C(=O)N(C)[C@H](CC(C)C)C(=O)N[C@@H]1C(=O)N[C@H](Cc2ccc(F)c(F)c2)C(=O)N[C@@H](CC(C)C)C(=O)N[C@H](Cc2ccccc2)C(=O)N(C)[C@H](C)C(=O)N[C@@H](CC(C)C)C(=O)N2CCC[C@H]2C(=O)O[C@@H]1C | -5.52 |
| COc1ccc(C[C@@H]2NC(=O)[C@@H](Cc3cccc4ccccc34)NC(=O)[C@@H](NC(=O)[C@@H](CC(C)C)N(C)C(=O)[C@@H]3CCCN3C(C)=O)[C@@H](C)OC(=O)[C@@H]3CCCN3C(=O)[C@H](CC(C)C)NC(=O)[C@@H](C)N(C)C(=O)[C@@H](Cc3ccc(F)cc3)NC2=O)cc1 | -6.85 |
| CC(=O)N1CCC[C@H]1C(=O)N[C@@H]1C(=O)N(C)[C@H](CC(C)C)C(=O)N(C)[C@@H](CC(C)C)C(=O)N[C@H](CC(C)C)C(=O)N(C)[C@H](CC(C)C)C(=O)N[C@H](C)C(=O)N[C@@H](CC(C)C)C(=O)N2CCC[C@@H]2C(=O)O[C@@H]1C | -5.07 |
| CC(=O)N[C@@H]1C(=O)N2CCC[C@H]2C(=O)N(C)[C@H](CC(C)C)C(=O)N(C)[C@H](CC(C)C)C(=O)N[C@@H](CC(C)C)C(=O)N[C@H](CC(C)C)C(=O)N[C@H](C)C(=O)N[C@@H](CC(C)C)C(=O)N2CCC[C@@H]2C(=O)O[C@@H]1C | -6.18 |
| CC[C@@H]1NC(=O)[C@@H](CC)NC(=O)[C@@H](NC(=O)[C@@H](CC(C)C)N(C)C(=O)[C@@H]2CCCN2C(C)=O)[C@@H](C)OC(=O)[C@@H]2CCCN2C(=O)[C@H](CC(C)C)NC(=O)[C@@H](C)N(C)C(=O)[C@@H](CC2CCCCC2)NC1=O | -5.66 |

Excerpt, the final 2 entries:

{"smiles": "CC(=O)N[C@@H]1C(=O)N2CCC[C@H]2C(=O)N(C)[C@H](CC(C)C)C(=O)N(C)[C@H](CC(C)C)C(=O)N[C@@H](CC(C)C)C(=O)N[C@H](CC(C)C)C(=O)N[C@H](C)C(=O)N[C@@H](CC(C)C)C(=O)N2CCC[C@@H]2C(=O)O[C@@H]1C", "PAMPA (log10 cm/s)": "-6.18"}
{"smiles": "CC[C@@H]1NC(=O)[C@@H](CC)NC(=O)[C@@H](NC(=O)[C@@H](CC(C)C)N(C)C(=O)[C@@H]2CCCN2C(C)=O)[C@@H](C)OC(=O)[C@@H]2CCCN2C(=O)[C@H](CC(C)C)NC(=O)[C@@H](C)N(C)C(=O)[C@@H](CC2CCCCC2)NC1=O", "PAMPA (log10 cm/s)": "-5.66"}